This is an account of results in paper PMC6151561, “Rapid Identification of Dipeptidyl Peptidase-IV (DPP-IV) Inhibitory Peptides from Ruditapes philippinarum Hydrolysate” (Molecules : A Journal of Synthetic Chemistry and Natural …, 2017).

By UniProt entry, the sequences of proteins in these tests, tags left out. Where a name states a change or a piece, a line headed by the entry shows the natural chain unless it says otherwise.
UniProt P22411: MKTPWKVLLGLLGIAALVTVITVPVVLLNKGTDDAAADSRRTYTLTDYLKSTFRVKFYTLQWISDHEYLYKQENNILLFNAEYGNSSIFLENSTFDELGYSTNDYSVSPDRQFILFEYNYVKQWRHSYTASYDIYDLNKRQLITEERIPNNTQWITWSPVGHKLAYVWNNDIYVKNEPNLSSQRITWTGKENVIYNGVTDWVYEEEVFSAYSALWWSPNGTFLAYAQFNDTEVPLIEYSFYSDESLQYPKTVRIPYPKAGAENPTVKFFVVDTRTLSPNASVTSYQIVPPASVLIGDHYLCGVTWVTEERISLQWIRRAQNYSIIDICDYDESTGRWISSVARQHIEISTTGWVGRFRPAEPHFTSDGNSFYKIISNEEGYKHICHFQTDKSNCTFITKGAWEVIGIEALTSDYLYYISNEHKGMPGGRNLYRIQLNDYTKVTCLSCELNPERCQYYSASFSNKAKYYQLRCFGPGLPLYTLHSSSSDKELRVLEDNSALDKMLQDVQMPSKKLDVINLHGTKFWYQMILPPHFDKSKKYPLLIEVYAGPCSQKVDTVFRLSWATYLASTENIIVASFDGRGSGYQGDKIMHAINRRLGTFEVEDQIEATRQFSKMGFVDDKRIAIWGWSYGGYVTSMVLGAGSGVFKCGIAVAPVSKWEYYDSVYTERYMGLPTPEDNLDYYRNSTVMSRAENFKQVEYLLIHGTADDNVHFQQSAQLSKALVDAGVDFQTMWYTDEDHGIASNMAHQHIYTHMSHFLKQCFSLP

The assay deals with T1, porcine DPP-IV (Sus scrofa, UniProt P22411).
T1 construct: purchased Sigma Chemical Co. (St. Louis, MO, USA)
Kind of assay: DPP-IV inhibitory activity assay (Gly-Pro-p-nitroanilide substrate, absorbance 405 nm). It is filed as biochemical. As to conditions: chemically synthesized peptides; diprotin A positive control. An excerpt: Papain (from papaya, 8 × 10^5 units/g of protein), trypsin (from porcine pancreas, 2.5 × 10^5 units/g of protein), pepsin (from porcine gastric mucosa, 1 × 10^4 units/g of protein), flavourzyme (from […], 2 × 10^4 units/g of protein), and alcalase (from Bacillus licheniformis, 2 × 10^5 units/g of protein) were purchased from […] Biological Tech., Ltd. (Nanjing, China). […] (St. Louis, MO, USA). Mass spectrometry (MS)-grade water, acetonitrile (ACN), and trifluoroacetic acid (TFA) were purchased from Tedia Company Inc. (Fairfield, CT, USA). All other reagents were obtained from Sigma. All reagents were of analytical grade. DPP-IV inhibitory activity was measured as previously described by Zhang with minor modifications. Briefly, a 25 μL sample (diluted in 100 mM Tris-HCl buffer at pH 8.0) was mixed with 25 μL Gly-Pro-p-nitroanilide (1.6 mM) and pre-incubated at 37 °C for 10 min. […] The reaction was terminated by adding 100 μL of 1 M sodium acetate buffer at pH 4.0. The absorbance of each reaction was measured at 405 nm. Diprotin A ([…]) was used as a reference inhibitor. The percent DPP-IV inhibition was calculated according to the following equation: […] The DPP-IV inhibitory activity of these chemically synthesized peptides was determined as described in Section 3.3.

Take `CC[C@H](C)[C@H](N)C(=O)N1CCC[C@H]1C(=O)N[C@H](C(=O)O)[C@@H](C)CC` [diprotin A, Ile-Pro-Ile, reference compound]: half-maximal inhibition (IC50) required 13.1 µM.
